# Assay results reported in PubChem BioAssay AID1745845 (National Center for Advancing Translational Sciences (NCATS), 2022).
# The entries are a selection whose mix differs from that of the whole data set. Inconclusive results are not listed. Active and inactive are the calls of the source. Calls follow the shape of the dose curve; as a rule, active = well fitted inhibition curve with a large enough effect; inconclusive = small, poorly fitted or top-dose-only effect; inactive = no such curve, though single readings can be large or run the other way.
# Assay: Primary qHTS for Inhibitors of ATXN expression; also: nearly all actives have a fitted effect of over 55% in size
# Conditions: HEK-293 ATXN2-luciferase reporter, luminescence, 24 h; at 57 µM (top of the series) unless noted
# % is scaled to controls: 0 for no effect and ±100 for the full control effect.
row,Compound,"activity change, negative = inhibition"
1,CP(=O)(Nc1ccccn1)Oc1ccc(Cl)cc1 (centres undefined),inactive: -10.5%
2,CCOC(=O)c1ccc(NP(C)(=O)Oc2ccc(OC)cc2)cc1 (centres undefined),inactive: 5.9%
3,O=[N+]([O-])c1cc([N+](=O)[O-])c(O)c([N+](=O)[O-])c1.c1ccc(Oc2ccncc2)cc1,inactive: -15.2%
4,CCOP(C)(=S)SCC(=O)NC(C)C(=O)O (centres undefined),inactive: 7.25%
5,Cc1cc(C)cc(OP(C)(=O)Nc2ccc(SC(F)(F)F)cc2)c1 (centres undefined),inactive: -18.6%
6,CP(=O)(NC(=O)Nc1ccccc1)Oc1ccccc1 (centres undefined),inactive: 5.96%
7,CP(=O)(Oc1ccccc1)OC(c1ccccc1)C(F)(F)F (centres undefined),inactive: 7.61%
8,Cc1cccc(C)c1OP(C)(=O)Nc1ccc(SC(F)(F)F)cc1 (centres undefined),inactive: 3.63%
9,CP(=O)(Nc1ccccc1Br)Oc1ccccc1 (centres undefined),inactive: 0.0993%
10,COc1ccccc1OP(C)(=O)Nc1ccccc1 (centres undefined),inactive: -15.8%
11,CP(=S)(Nn1cnnc1)Oc1ccccc1 (centres undefined),inactive: -20.1%
12,Cc1cc(C)cc(OP(C)(N)=O)c1 (centres undefined),inactive: -10.5%
13,COc1ccc(OP(C)(=O)Nc2cccc(F)c2)cc1 (centres undefined),inactive: 1.47%
14,COc1ccccc1OP(C)(=O)Nc1cc(Cl)ccc1C (centres undefined),inactive: -6.87%
15,COc1ccccc1OP(C)(=O)Nc1ccc(C)cc1 (centres undefined),inactive: -2.77%
16,CCOC(=O)c1ccc(NP(C)(=O)Oc2ccccc2)cc1 (centres undefined),inactive: 11.3%
17,O=[N+]([O-])c1ccc2c(c1)C=Nc1ccccc1O2,inactive: 0.695%
18,Cc1cccc(C)c1OP(C)(N)=O (centres undefined),inactive: -3.57%
19,COc1ccccc1-c1ccccn1.O=[N+]([O-])c1cc([N+](=O)[O-])c(O)c([N+](=O)[O-])c1,inactive: -15.7%
20,CCN(CC)CCCOC(=O)C(O)(c1ccccc1)c1ccccc1,inactive: 2.26%
21,Cc1ccc(C)c(NP(C)(=O)Oc2ccccc2)c1 (centres undefined),inactive: 0.29%

row,Compound,"activity change, negative = inhibition"
1,CP(=O)(Nc1cccc(Br)c1)Oc1ccccc1 (centres undefined),inactive: -17.3%
2,Cc1cc(C)cc(OP(C)(=O)Nc2ccccn2)c1 (centres undefined),inactive: 2.62%
3,CCOC(=O)c1ccc(NP(C)(=O)Oc2cc(C)cc(C)c2)cc1 (centres undefined),inactive: -14.4%
4,Cc1cc(C)cc(OP(C)(=O)Nc2ccc(C)cc2C)c1 (centres undefined),inactive: -10.4%
5,COc1ccccc1OP(C)(=O)Nc1cccc(Br)c1 (centres undefined),inactive: 6.86%
6,CC1=NCCc2c1[nH]c1ccccc21.O=[N+]([O-])c1cc([N+](=O)[O-])c(O)c([N+](=O)[O-])c1,inactive: -0.374%
7,O=[N+]([O-])c1cccc([N+](=O)[O-])c1,inactive: -3.96% [at 116 µM]
8,CP(=O)(Nc1ccc(SC(F)(F)F)cc1)Oc1ccccc1 (centres undefined),inactive: -23%
9,CCCOc1ccc(NP(C)(=O)Oc2ccc(Cl)cc2)cc1 (centres undefined),inactive: -4.93% [at 11.3 µM]
10,COc1ccccc1OP(C)(=O)Nc1c(C)cccc1C (centres undefined),inactive: 1.54%
11,CN1CCCCC1COC(=O)C1(O)c2ccccc2CCc2ccccc21 (centres undefined),inactive: -0.233%
12,CC1=C2N=C(C=C3N=C(C(C)=C4[N-][C@@](C)([C@@H]5N=C1[C@](C)(CCC(=O)NC[C@@H](C)OP(=O)([O-])O[C@H]1[C@@H](O)[C@@H](n6cnc7cc(C)c(C)cc76)O[C@@H]1CO)[C@H]5CC(N)=O)[C@@](C)(CC(N)=O)[C@@H]4CCC(N)=O)[C@@](C)(CC(N)=O)[C@@H]3CCC(N)=O)C(C)(C)[C@@H]2CCC(N)=O.[C-]#N.[Co+3],inactive: -28.1%
13,Cc1nc2ccc3ccccc3c2s1.O=[N+]([O-])c1cc([N+](=O)[O-])c(O)c([N+](=O)[O-])c1,inactive: -18.1%
14,O=[N+]([O-])c1cc([N+](=O)[O-])c(-c2cnn(-c3ccccc3)c2)c([N+](=O)[O-])c1,inactive: -31.9%
15,CN(Cc1cccnc1)C(=O)COc1ccc(Cl)c(Cl)c1.O=[N+]([O-])c1cc([N+](=O)[O-])c(O)c([N+](=O)[O-])c1,inactive: -0.862%
16,O=[N+]([O-])c1cc([N+](=O)[O-])c(-n2nnc3ccccc32)c([N+](=O)[O-])c1,inactive: -14.3%
17,Cc1ccccc1NP(C)(=O)Nc1ccccc1C,inactive: 0.0419%
18,O=[N+]([O-])c1cc([N+](=O)[O-])c(C(F)(F)F)c([N+](=O)[O-])c1O,inactive: 20.9%
19,CP(=O)(Nc1ccc2c(c1)OCCO2)Oc1ccccc1 (centres undefined),inactive: -1.66%
20,CCOP(C)(=S)SCC(=O)NC(C)(CC)C(=O)O (centres undefined),inactive: 55.5%
21,CP(=O)(Nc1ccc(SC(F)(F)F)cc1)Oc1ccc(F)cc1 (centres undefined),inactive: -28.4%

row,Compound,"activity change, negative = inhibition"
1,C/C1=C2N=C(/C=C3N=C(/C(C)=C4\[N-][C@@](C)([C@@H]5N=C1[C@](C)(CCC(=O)NC[C@@H](C)OP(=O)([O-])O[C@H]1[C@@H](O)[C@@H](n6cnc7cc(C)c(C)cc76)O[C@@H]1CO)[C@H]5CC(N)=O)[C@@](C)(CC(N)=O)[C@@H]4CCC(N)=O)[C@@](C)(CC(N)=O)[C@@H]\3CCC(N)=O)C(C)(C)[C@@H]/2CCC(N)=O.[C-]#N.[Co+3],inactive: -15.7%
2,Cc1c(C(c2ccc3c(c2)OCO3)c2c(C)n(C)n(-c3ccccc3)c2=O)c(=O)n(-c2ccccc2)n1C.O=[N+]([O-])c1cc([N+](=O)[O-])c(O)c([N+](=O)[O-])c1,inactive: 6.24%
3,O=[N+]([O-])c1ccc(OP2(=O)COCCO2)cc1 (centres undefined),inactive: 1.93%
4,Cc1cc(-c2cccc3ccccc23)c(C)cn1.O=[N+]([O-])c1cc([N+](=O)[O-])c(O)c([N+](=O)[O-])c1,inactive: -31.9%
5,CN(C)CCOC(=O)C(O)(c1ccccc1)C1CCCCC1 (centres undefined),inactive: 4.1%
6,COc1ccc(NP(C)(=O)Oc2ccccc2OC)cc1 (centres undefined),inactive: -12.2% [at 11.3 µM]
7,COc1ccc(OP(C)(=O)Nc2cccc(Br)c2)cc1 (centres undefined),inactive: -9.03%
8,CP(=O)(Nc1ccccc1)Oc1ccc(F)cc1 (centres undefined),inactive: -1.87%
9,CCCCCOc1ccc(NP(C)(=O)Oc2ccc(Cl)cc2Cl)cc1 (centres undefined),inactive: -16.5%
10,Cc1c([N+](=O)[O-])cc([N+](=O)[O-])c(Br)c1[N+](=O)[O-],inactive: 1.17%
11,CCN(CC)CCCOC(=O)C(O)(c1ccccc1)C1CCCCC1 (centres undefined),inactive: -3.05%
12,CCOC(=O)c1ccc(NP(C)(=O)Oc2ccc(F)cc2)cc1 (centres undefined),inactive: 4.27%
13,Cc1cccc([N+](=O)[O-])c1[N+](=O)[O-],inactive: -9.26% [at 116 µM]
14,CCOP(=O)(CC)Oc1ccc([N+](=O)[O-])cc1 (centres undefined),inactive: -17.3%
15,O=C(OCCN1CCN(CCOCc2ccccc2)CC1)C(O)(c1ccccc1)c1ccccc1,inactive: 3.56%
16,CP(=O)(Nc1ccccc1F)Oc1ccccc1 (centres undefined),inactive: 1.23%
17,COc1ccccc1OP(C)(=O)Nc1ccc(C)cc1C (centres undefined),inactive: 5.32%
18,CP(=O)(Nc1ccccn1)Oc1ccccc1 (centres undefined),inactive: -5.9%
19,CCc1ccc(OP(C)(=O)O)cc1,inactive: 1.17%
20,Cc1c(NP(C)(=O)Oc2ccc(C(C)C)cc2)c(=O)n(-c2ccccc2)n1C (centres undefined),inactive: -13.2%
21,CC1=C2[N-][C@@](C)([C@@H]3N=C(C(C)=C4N=C(C=C5N=C1[C@@](C)(CC(N)=O)[C@H]5CCC(N)=O)C(C)(C)[C@H]4CCC(N)=O)[C@](C)(CCC(=O)NC[C@@H](C)OP(=O)([O-])O[C@H]1[C@@H](O)[C@@H](n4cnc5cc(C)c(C)cc54)O[C@H]1CO)[C@H]3CC(N)=O)[C@@](C)(CC(N)=O)[C@@H]2CCC(N)=O.[C-]#N.[Co+3],inactive: -23.7% [at 25.6 µM]

row,Compound,"activity change, negative = inhibition"
1,COc1ccc(OP(C)(=O)Nc2ccccn2)cc1 (centres undefined),inactive: -14.2%
2,CN(C)CCOC(=O)C(O)(c1ccccc1)C1CCCC1 (centres undefined),inactive: -3.23%
3,COc1ccccc1OP(C)(=O)Nc1ccc(Br)cc1 (centres undefined),inactive: 11.2%
4,CP(=O)(OCCOc1ccccc1)OCCOc1ccccc1,inactive: -17.6%
5,CP(=O)(Nc1ccc(Cl)cc1Cl)Oc1ccccc1 (centres undefined),inactive: -0.947%
6,CCCCCCCCCCCCCCCC1C[N+](C)(C)CCOP(C)(=O)O1 (centres undefined),inactive: -9.14%
7,COc1ccccc1OP(C)(=O)Nc1ccc(C)c(C)c1 (centres undefined),inactive: -10.3%
8,COc1ccc(OP(C)(=O)Nc2ccccc2Br)cc1 (centres undefined),inactive: 2.96%
9,Cc1cc(C)cc(OP(C)(=O)Nc2cccc(C(F)(F)F)c2)c1 (centres undefined),inactive: -29%
10,CCOC(=O)c1ccc(NP(C)(=O)Oc2ccc(Cl)cc2)cc1 (centres undefined),inactive: -1.94%
11,CP(=O)(OC12CC3CC(CC(C3)C1)C2)OC12CC3CC(CC(C3)C1)C2,inactive: -9.19%
12,CC(C)(C)c1ccc(OP(C)(=O)O)cc1,inactive: -1.5%
13,COc1ccccc1OP(C)(=O)Nc1ccccc1Br (centres undefined),inactive: 14.2%
14,CP(=O)(Nc1ccc(Cl)cc1)Oc1ccc(F)cc1 (centres undefined),inactive: -14.4%
15,OCCSCCO,inactive: -0.313%
16,O=C(OCCCN1CCCC1)C(O)(c1ccccc1)C1CCCCC1 (centres undefined),inactive: -20.9%
17,COc1ccccc1OP(C)(=O)Nc1c(C)n(C)n(-c2ccccc2)c1=O (centres undefined),inactive: 3.2%
18,CCc1ccc(OP(C)(=O)Nc2cccnc2)cc1 (centres undefined),inactive: -6.23%
19,CP(=O)(Oc1ccccc1)N1CCOC1=O (centres undefined),inactive: 1.7%
20,COc1ccc(OP(C)(=O)Nc2ccc(Br)cc2)cc1 (centres undefined),inactive: 1.21%
21,CCN(CC)CC(O)COC(=O)C(O)(c1ccccc1)C1CCCCC1 (centres undefined),inactive: -15.3%
